Results reported in ChEMBL document CHEMBL1140182, “Modeling binding modes of alpha7 nicotinic acetylcholine receptor with ligands: the roles of Gln117 and other residues of the receptor in agonist binding” (J Med Chem, 2008).

Amino acid sequences for entries named in this document (tags omitted). Residues count along the entry.
UniProt P36544, 23-502 limits assumed: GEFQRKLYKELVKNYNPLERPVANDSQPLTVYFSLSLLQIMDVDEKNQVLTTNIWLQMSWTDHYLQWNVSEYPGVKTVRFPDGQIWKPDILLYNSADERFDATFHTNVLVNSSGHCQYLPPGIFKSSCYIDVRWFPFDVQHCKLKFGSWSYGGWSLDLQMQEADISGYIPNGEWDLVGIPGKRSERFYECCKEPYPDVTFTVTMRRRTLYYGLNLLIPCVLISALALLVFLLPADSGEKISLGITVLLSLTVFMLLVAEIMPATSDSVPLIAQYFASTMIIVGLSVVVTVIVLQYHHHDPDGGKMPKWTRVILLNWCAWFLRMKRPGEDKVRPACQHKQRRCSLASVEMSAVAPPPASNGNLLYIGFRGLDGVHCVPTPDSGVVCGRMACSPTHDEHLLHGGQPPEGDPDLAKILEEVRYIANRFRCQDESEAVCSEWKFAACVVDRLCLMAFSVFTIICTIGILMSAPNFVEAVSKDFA

Target: Neuronal acetylcholine receptor subunit alpha-7 (Homo sapiens, UniProt P36544)
Assay: Displacement of [125I]alpha-bungarotoxin from alpha7 nAChR

**Q.** How did the Kd turn out when `CN1C[C@@]2(CN3CCC2CC3)OC1=O` was run?
**A.** 220 nM
